Values quoted from earlier work as cited in US8324156B2, “Oral insulin therapies and protocol” (Emisphere Technologies, Inc., priority 2003, dated 2012).

Conditions: food effect; cited from earlier work

CN(CCOc1ccc(CC2SC(=O)NC2=O)cc1)c1ccccn1 (stereo not shown) [AVANDIA® thiazolidinedione, rosiglitazone]
decrease in Cmax when given with food: 28%
